Assay results from patent publication US10201546B2, “Quinolinyl modulators of RORγt” (Janssen Pharmaceutica NV, priority 2013, dated 2019).
Where two headings read alike, the source gives them in different places.

By UniProt entry, the sequences of proteins in these tests, tags left out. Chains listed by the source or under a name are the forms on record and can include a tag or linker.
UniProt P51449, other isoform, or with tags, fused parts or gaps: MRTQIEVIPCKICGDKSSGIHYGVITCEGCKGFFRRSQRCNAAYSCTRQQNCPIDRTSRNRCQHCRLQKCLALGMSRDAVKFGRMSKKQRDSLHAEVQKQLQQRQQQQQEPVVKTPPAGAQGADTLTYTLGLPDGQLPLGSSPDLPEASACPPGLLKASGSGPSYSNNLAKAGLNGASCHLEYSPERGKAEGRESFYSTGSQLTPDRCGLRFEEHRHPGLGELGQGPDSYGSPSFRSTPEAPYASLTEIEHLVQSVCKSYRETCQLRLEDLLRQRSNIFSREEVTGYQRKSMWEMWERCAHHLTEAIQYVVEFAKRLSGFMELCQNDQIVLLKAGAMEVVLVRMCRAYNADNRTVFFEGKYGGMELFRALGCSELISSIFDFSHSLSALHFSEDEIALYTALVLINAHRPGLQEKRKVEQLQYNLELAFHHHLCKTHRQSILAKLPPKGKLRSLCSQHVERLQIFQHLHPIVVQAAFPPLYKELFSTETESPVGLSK

Tests used:
[1] = target: T1, GAL4-DNA binding domain (DBD)-RORγt fusion protein (full-length human RORγt) (Homo sapiens (Human), UniProt P51449); settings: for RORγt (FL) Reporter Assay, % inhibition @ 6 μM / IC50: HEK293T cells; for IC50: read-out: RORγt (FL) Reporter Assay, IC50
[2] = target: T1, GAL4-DNA binding domain (DBD)-RORγt fusion protein (full-length human RORγt); experiment: cell-based; settings: HEK-293T, read-out: RORγt (FL) Reporter Assay, % inhibition @ 6 μM, @ 6 μM; HEK293T cells
[3] = * at 2 μM compound concentration

| SMILES | RORγt (FL) Reporter Assay, % inhibition ([1]; unstarred values) [%] | IC50 [1] [µM] | further results |
| --- | --- | --- | --- |
| COc1nc2ccc(C(O)(c3ccnc(C(F)(F)F)c3)c3cnc(C)n3C)cc2c(Cl)c1CN1CCC(C(F)(F)F)CC1 (single isomer, unassigned) [Example 126c, (4-Chloro-2-methoxy-3-((4-(trifluoromethyl)piperidin-1-yl)methyl)quinolin-6-yl)(1,2-dimethyl-1H-imidazol-5-yl)(2-(trifluoromethyl)pyridin-4-yl)methanol] |  |  | RORγt (FL) Reporter Assay, % inhibition [1, 3]: 78* % |
| COc1nc2ccc(C(O)(c3cnc(C)n3C)C3CN(C(C)=O)C3)cc2c(Cl)c1CN1CCC(C(F)(F)F)CC1 (single isomer, unassigned) [Example 124c, 1-(3-((4-Chloro-2-methoxy-3-((4-(trifluoromethyl)piperidin-1-yl)methyl)quinolin-6-yl)(1,2-dimethyl-1H-imidazol-5-yl)(hydroxy)methyl)azetidin-1-yl)ethanone] | 87 |  |  |
| COc1nc2ccc(C(O)(c3ccc(C)nc3C)c3cnnn3C)cc2c(Cl)c1C1CCCC1 (single isomer, unassigned) [Example 136b, (4-Chloro-3-cyclopentyl-2-methoxyquinolin-6-yl)(2,6-dimethylpyridin-3-yl)(1-methyl-1H-1,2,3-triazol-5-yl)methanol] | 79 |  |  |
| COc1nc2ccc(C(O)(c3cnnn3C)C3CN(C(C)=O)C3)cc2c(Cl)c1CN1CCC(C(F)(F)F)CC1 (single isomer, unassigned) [Example 123b, 1-(3-((4-Chloro-2-methoxy-3-((4-(trifluoromethyl)piperidin-1-yl)methyl)quinolin-6-yl)(hydroxy)(1-methyl-1H-1,2,3-triazol-5-yl)methyl)azetidin-1-yl)ethanone] | 95 |  |  |
| COc1nc2ccc(C(O)(c3cnc(C)n3C)C3CN(C(C)=O)C3)cc2c(Cl)c1CN1CCC(C(F)(F)F)CC1 (single isomer, unassigned) [Example 124b, 1-(3-((4-Chloro-2-methoxy-3-((4-(trifluoromethyl)piperidin-1-yl)methyl)quinolin-6-yl)(1,2-dimethyl-1H-imidazol-5-yl)(hydroxy)methyl)azetidin-1-yl)ethanone] | 87 |  |  |
| COc1nc2ccc(C(O)(c3ccnc(C(F)(F)F)c3)c3cnc(C)n3C)cc2c(Cl)c1CN1CCC(C(F)(F)F)CC1 (single isomer, unassigned) [Example 126b, (4-Chloro-2-methoxy-3-((4-(trifluoromethyl)piperidin-1-yl)methyl)quinolin-6-yl)(1,2-dimethyl-1H-imidazol-5-yl)(2-(trifluoromethyl)pyridin-4-yl)methanol] |  |  | RORγt (FL) Reporter Assay, % inhibition [1, 3]: 101* % |
| COc1nc2ccc(C(O)(c3ccnc(C(F)(F)F)c3)c3cnnn3C)cc2c(Cl)c1CN1CCC(C(F)(F)F)CC1 (single isomer, unassigned) [Example 129b, (4-Chloro-2-methoxy-3-((4-(trifluoromethyl)piperidin-1-yl)methyl)quinolin-6-yl)(1-methyl-1H-1,2,3-triazol-5-yl)(2-(trifluoromethyl)pyridin-4-yl)methanol] | 88 |  |  |
| COc1nc2ccc(C(O)(c3cnc(C)n3C)c3cnc(C)n3C)cc2c(Cl)c1OC1CCCN(C)C1 (single isomer, unassigned) [Example 51c, (4-Chloro-2-methoxy-3-{[1-methylpiperidin-3-yl]oxy}quinolin-6-yl)[bis(1,2-dimethyl-1H-imidazol-5-yl)]methanol] |  | > 6 | RORγt (FL) Reporter Assay, % inhibition @ 6 μM [1]: 13% |
| COc1nc2ccc(C(O)(c3cnc(C)n3C)c3cnc(C)n3C)cc2c(Cl)c1CNC(=O)CCC(F)(F)F [Example 186, N-((6-(Bis(1,2-dimethyl-1H-imidazol-5-yl)(hydroxy)methyl)-4-chloro-2-methoxyquinolin-3-yl)methyl)-4,4,4-trifluorobutanamide] | 5 | > 6 |  |
| COc1nc2ccc(C(O)(c3ccc(C(F)(F)F)nc3)c3cncn3C)cc2c(C#N)c1CN1CCC(C(F)(F)F)CC1 (single isomer, unassigned) [Example 191c, 6-(Hydroxy(1-methyl-1H-imidazol-5-yl)(6-(trifluoromethyl)pyridin-3-yl)methyl)-2-methoxy-3-((4-(trifluoromethyl)piperidin-1-yl)methyl)quinoline-4-carbonitrile] | 95 |  |  |
| COc1nc2ccc(C(O)(c3cnc(C)n3C)c3cnc(C)n3C)cc2c(Cl)c1OCC1CCCN1C (stereo not shown) [Example 52, {4-Chloro-2-methoxy-3-[(1-methylpyrrolidin-2-yl)methoxy]quinolin-6-yl}[bis(1,2-dimethyl-1H-imidazol-5-yl)]methanol] |  | > 6 | inhibition at 6 µM [2]: 10% |
| COc1nc2ccc(C(O)(c3ccc(C)nc3C)c3cnnn3C)cc2c(Cl)c1C(=O)N1CCCC1 (stereo not shown) [Example 151, [4-Chloro-2-methoxy-3-(pyrrolidin-1-ylcarbonyl)quinolin-6-yl](2,6-dimethylpyridin-3-yl)(1-methyl-1H-1,2,3-triazol-5-yl)methanol] | 45 | > 6 |  |
| COc1nc2ccc(C(O)(c3ccc(C(F)(F)F)nc3)C3CN(C(C)=O)C3)cc2c(Cl)c1CN1CCC(C(F)(F)F)CC1 (single isomer, unassigned) [Example 131c, 1-(3-((4-Chloro-2-methoxy-3-((4-(trifluoromethyl)piperidin-1-yl)methyl)quinolin-6-yl)(hydroxy)(6-(trifluoromethyl)pyridin-3-yl)methyl)azetidin-1-yl)ethanone] |  |  | RORγt (FL) Reporter Assay, % inhibition [1, 3]: 94* % |
| COc1nc2ccc(C(O)(c3cnc(C)n3C)C3CCOCC3)cc2c(Cl)c1CN1CCC(C(F)(F)F)CC1 (single isomer, unassigned) [Example 130c, (4-Chloro-2-methoxy-3-((4-(trifluoromethyl)piperidin-1-yl)methyl)quinolin-6-yl)(1,2-dimethyl-1H-imidazol-5-yl)(tetrahydro-2H-pyran-4-yl)methanol] | 87 |  |  |
| COc1nc2ccc(C(O)(c3cnc(C)n3C)c3cnc(C)n3C)cc2c(Cl)c1CNC(=O)CC(F)(F)F [Example 185, N-((6-(Bis(1,2-dimethyl-1H-imidazol-5-yl)(hydroxy)methyl)-4-chloro-2-methoxyquinolin-3-yl)methyl)-3,3,3-trifluoropropanamide] | 6 | > 6 |  |
| COc1nc2ccc(C(O)(c3cnc(C)n3C)c3cnc(C)n3C)cc2c(Cl)c1OC1CCCN(C)C1 (single isomer, unassigned) [Example 51b, (4-Chloro-2-methoxy-3-{[1-methylpiperidin-3-yl]oxy}quinolin-6-yl)[bis(1,2-dimethyl-1H-imidazol-5-yl)]methanol] |  | > 6 | RORγt (FL) Reporter Assay, % inhibition @ 6 μM [1]: 4% |
